# pIC50, pKi: −log10 of the molar value. Where “and” joins values, the source holds several entries; their conditions need not be identical. Identical values can stand only once.
# Amino acid sequences for entries named in this document (tags omitted). Residues count along the entry.
# UniProt P08684, 2-503: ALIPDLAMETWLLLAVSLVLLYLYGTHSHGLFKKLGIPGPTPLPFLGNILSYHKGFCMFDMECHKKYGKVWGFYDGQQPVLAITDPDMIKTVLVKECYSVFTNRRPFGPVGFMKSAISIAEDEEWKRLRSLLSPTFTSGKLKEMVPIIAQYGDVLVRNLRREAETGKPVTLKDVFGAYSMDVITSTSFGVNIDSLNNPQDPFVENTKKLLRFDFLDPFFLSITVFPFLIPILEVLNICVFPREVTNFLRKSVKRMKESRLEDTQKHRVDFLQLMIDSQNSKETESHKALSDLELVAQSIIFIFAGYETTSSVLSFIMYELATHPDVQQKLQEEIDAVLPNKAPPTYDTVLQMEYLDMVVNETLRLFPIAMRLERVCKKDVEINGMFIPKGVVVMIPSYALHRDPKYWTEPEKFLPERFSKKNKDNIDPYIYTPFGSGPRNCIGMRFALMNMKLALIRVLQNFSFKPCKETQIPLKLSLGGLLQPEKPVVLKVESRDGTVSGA
# Columns and labels:
# [1] = In vivo pharmacokinetic study of DCCTX and Gom A in rats; conditions: rat
# Method: Rats were randomly divided into five groups (groups 1−5, n = 6), respectively. To determine the short- and long-term effect of single-dose Gom A pretreatment on CYP3A metabolism of CTX, Gom A and CTX were administered to rats with different time intervals in groups 2−5. In brief, rats in group 1 (CTX alone group) were i.g. administered with saline (10 mL/kg, vehicle control), and rats in groups 2−5 were given Gom A (i.g.) at the dose of 20.8 mg/kg (50 μmol/kg). Rats in group 1 were intravenously (i.v.) administered with CTX (300 mg/kg) 0.5 h after saline administration. In groups 2–5, rats were given CTX (i.v.) 0.5, 6, 24 and 72 h after Gom A pretreatment, respectively. Mesna was injected (420 mg/kg, i.v.) 1 hour after CTX administration in all groups to prevent bladder injury in accordance with clinical practice.
# Blood samples were collected from the postocular vein at 0.083, 0.25, 0.5, 1, 2, 3, 4, 6, 8, 12 and 24 h after CTX injection. Samples were transferred to heparin tubes and centrifuged at 5000 rpm for 15 min. Plasma was obtained and stored at −20 °C until required for further analysis.
# UHPLC-MS/MS method (I): 6OH-Tes concentrations were analyzed according to the previous reports with slight modifications (Supplementary Figure S3). The terminated sample were centrifuged at 14,000 rpm for 10 min, 10 μL of each supernatant was injected into the UHPLC-MS/MS system for analysis. In general, an Agilent Elipse Plus 2.1 × 50 mm column packed with 1.8 µm C18 was applied. The column temperature was set as 30 °C at a flow rate of 0.3 mL/min. The mobile phase was consisted of aqueous 1% formic acid with the addition of 10 mM ammonium acetate solution (A) and methanol (B) with the gradient elution program set as follow: 5–50–80% B from 0–1–4 min. The ion transitions were m/z 305.0→269.0 for 6OH-Tes and m/z 181.0→111.0 for phenacetin (IS-I). UHPLC-MS method (II): DCCTX concentrations were determined using our previously developed UHPLC-MS/MS method (Supplementary Figure S4). For pharmacokinetic study, plasma samples were diluted 30-fold with plasma from drug-free rats. After vortexing for 2 min, 100 μL of each diluted sample was mixed with 400 μL acetonitrile (containing 6 ng/mL TNZ (IS-II), vortexed, and centrifuged at 14,000 rpm for 10 min. 100 μL supernatant of each sample was mixed with 400 μL aqueous solution containing 10% acetonitrile followed by a rough centrifugation. For HLMs inhibition study, samples were vortexed for 1 min after reaction termination, and the mixture was then centrifuged at 14,000 rpm for 10 min. After centrifugation, the obtained supernatant (5 μL) was injected into the UHPLC-MS/MS system, using methanol/10 mM ammonium acetate aqueous solution as the mobile phase at a flow rate of 0.25 mL/min. The ion transitions were set as m/z 199.2→78 for DCCTX and m/z 248.1→121.1 for TNZ (IS-II). UHPLC-MS/MS method (III): Gom A concentrations were determined using slightly modified LC/MS method which developed by our laboratory. Briefly, a 100 µL plasma sample was transferred to a 10 mL centrifuge tube with addition of 20 µL IS solution and 20 µL water/acetonitrile (90:10, v/v), vortexed for 30 s and then extracted using 3 mL methyl tertiary butyl ether. After extraction, the sample was centrifuged at 5000 rpm for 10 min. The organic layer was quantitatively transferred to a 5 mL glass tube and evaporated to dryness at 35 °C. Then the dried extract was reconstituted in 100 µL solvent (water–acetonitrile, 20:80, v/v) followed by injection of 10 µL aliquot into LC-MS/MS system. Separation was performed on a Zorbax SB-C18 reserved-phase column (100 mm × 2.1 mm i.d., 3.5 µm) with the mobile phase consisting of acetonitrile, methanol and water −0.1% formic acid (72:18:10, v/v/v) at a flow rate of 0.3 mL/min. The ion transitions were set as m/z 399→329 for Gom A and m/z 387.0→145.0 for bifendate (IS-III). […]
# CYP3A [2] = target: T1, CYP3A (Homo sapiens, UniProt P08684); test: Reversible CYP3A inhibition, testosterone 6β-hydroxylation in human liver microsomes; format: in vitro ADME; conditions: HLMs 0.5 mg/mL, Tes 6β-hydroxylation, Lineweaver-Burk secondary plot; read-out: KI (Ki), reversible competitive inhibition
# Method: (§1) A NADPH regenerating system (NADPH-gs, containing 10 mM glucose-6-phosphate, 5 mM magnesium chloride, 1 U/mL glucose-6-phosphate dehydrogenase and 1 mM NADP+) was constructed. The metabolite of Tes, 6OH-Tes, was assayed by UHPLC-MS method (I) for CYP3A activity assessment.
# The CYP3A inhibition by Gom A was preliminarily evaluated. […] After a 5 min warm up period, reactions were initiated with addition of NADPH-gs. Incubations were conducted at 37 °C for 10 min and then terminated by the addition of 200 µL ice-cold acetonitrile containing 18 ng/mL phenacetin (IS-I). To determine the Ki value, Gom A (0.38, 0.75, 1.5, 3 µM) was added to the reaction mixture containing different concentrations of Tes (12.5, 18.75, 25, 37.5 and 50 µM) in the incubation systems. Incubations were processed and terminated as described earlier.
# (§2) Pharmacokinetic profiles of CTX and DCCTX were estimated by one-compartmental model using the DAS 2.0 software ([…], Medical College of Wannan, Anhui, China). Data were expressed as mean ± SD. […] IC50 values of Gom A were determined by nonlinear regression analysis using GraphPad Prism 5.01 software (GraphPad Software Inc., San Diego, CA, USA). The mode of inhibition was verified by Lineweaver-Burk plots of the enzyme kinetic data, and the KI value was determined by linear regression analysis with GraphPad Prism 5.01 (GraphPad Software Inc.). […]
# CYP3A [3] = target: T1, CYP3A; test: IC50 shift assay (time- and NADPH-dependent inhibition) in HLMs; format: in vitro ADME; conditions: 25 µM Tes
# Method: as §1
# To identify time-dependent inhibition (TDI), the IC50 values of Gom A were determined using HLMs with and without a 30 minute preincubation step. In a final volume of 100 µL, Gom A at different concentrations (0, 0.08, 0.31, 0.63, 2.5, 10 and 40 µM) was preincubated with 10 × HLMs (5 mg/mL) at 37 °C with NADPH-gs in PBS (0.1 M). After 30 min, the incubation mixture was diluted 10 folds using PBS (0.1 M). Then 100 µL of the diluted mixture was added into a secondary incubation containing NADPH-gs and 25 µM Tes. The final volume was 200 µL. […]
# as §2
# CYP3A [4] = target: T1, CYP3A; test: KI and kinact assay (CYP3A inactivation) in HLMs; format: in vitro ADME; parameters: tissue Meilun Biotechnology Co., Ltd. (Dalian, China) lot No. M0202A; host or cells: pooled (mixed) male human liver microsomes; conditions: preincubation 0-30 min with NADPH-gs, 100 µM Tes, read-out: KI (time-dependent inhibition)
# Method: The following steps were similar as described in the IC50 shift assays. The concentration of Tes was set as 100 µM (well beyond Km) to avoid reversible inhibition. All the incubations were performed in triplicate.
# Pharmacokinetic profiles of CTX and DCCTX were estimated by one-compartmental model using the DAS 2.0 software ([…], Medical College of Wannan, Anhui, China). Data were expressed as mean ± SD. Comparisons between two groups were performed using one-way ANOVA followed by LSD test in the condition of variance homogeneity or Dunnett T3 test in the case of variance heterogeneity. The differences were considered to be statistically significant at * p < 0.05 and ** p < 0.01. IC50 values of Gom A were determined by nonlinear regression analysis using GraphPad Prism 5.01 software (GraphPad Software Inc., San Diego, CA, USA). The mode of inhibition was verified by Lineweaver-Burk plots of the enzyme kinetic data, and the KI value was determined by linear regression analysis with GraphPad Prism 5.01 (GraphPad Software Inc.). […]
# [5] = Group 4: Gom A 20.8 mg/kg i.g. 24 h before CTX
# [6] = Group 5: Gom A 20.8 mg/kg i.g. 72 h before CTX
substance,measurement,setting,value
Gomisin A [Gom A],observed maximal blood concentration,"[1]; Group 2, Gom A 20.8 mg/kg (50 µmol/kg) i.g.",approximately 16 µM
same,"AUC0–8h of DCCTX, % of group 1 (CTX alone group)",[1]; Group 3: Gom A 20.8 mg/kg i.g. 6 h before CTX,36%
same,"AUC0–8h of DCCTX, fold increase vs CTX alone",[1]; [5],2.0 fold
same,"Cmax of DCCTX, fold increase vs CTX alone",[1]; [5],1.9 fold
same,"AUC0–8h of DCCTX, fold increase vs CTX alone",[1]; [6],2.4 fold
same,"Cmax of DCCTX, fold increase vs CTX alone",[1]; [6],2.3 fold
same,pKi,CYP3A [2],6.00 and 5.99
same,pIC50,CYP3A [3]; preincubated with NADPH and HLMs for 30 min,6.38
same,pIC50,CYP3A [3]; without preincubation,6.12
same,pKi,CYP3A [4],6.46

# Reference: paper PMC6152024, “Time- and NADPH-Dependent Inhibition on CYP3A by Gomisin A and the Pharmacokinetic Interactions between Gomisin A and Cyclophosphamide in Rats” (Molecules : A Journal of Synthetic Chemistry and Natural …, 2017)
